This series in a line: soluble on expression in E. coli; label from the status in PepcDB or PDB records.

From the DeepSol protein solubility set come the findings set out here.

For the sequence “MASRGVNKVILVGNLGQDPEVRYMPNGGAVANITLATSESWRDKATGEMKEQTEWHRVVLFGKLAEVASEYLRKGSQVYIEGQLRTRKWTDQSGQDRYTTEVVVNVGGTMQMLGGRQGGGAPAGGNIGGGQPQGGWGQPQQPQGGNQFSGGAQSRPQQSAPAAPSNEPPMDFDDDIPF”, the “soluble on expression in E. coli” value was “soluble”.
On to “MSLSHGKGTDMLPEIAAAVGFLSSLLRTRGCVSEQRLKVFSGALQEALTEHYKHHWFPEKPSKGSGYRCIRINHKMDPIISRVASQIGLSQPQLHQLLPSELTLWVDPYEVSYRIGEDGSICVLYEEAPLAASCGLLTCKNQVLLGRSSPSKNYVMAVSSEGHHHHHH”, for which the “soluble on expression in E. coli” value is “not soluble”.
